# Experimental data as given in ChEMBL document CHEMBL1128272, “Stereoselective LSD-like activity in a series of d-lysergic acid amides of (R)- and (S)-2-aminoalkanes” (J Med Chem, 1995).
# Chains of the proteins cited; added tags and fusions are not shown.
# UniProt P14842, whole entry: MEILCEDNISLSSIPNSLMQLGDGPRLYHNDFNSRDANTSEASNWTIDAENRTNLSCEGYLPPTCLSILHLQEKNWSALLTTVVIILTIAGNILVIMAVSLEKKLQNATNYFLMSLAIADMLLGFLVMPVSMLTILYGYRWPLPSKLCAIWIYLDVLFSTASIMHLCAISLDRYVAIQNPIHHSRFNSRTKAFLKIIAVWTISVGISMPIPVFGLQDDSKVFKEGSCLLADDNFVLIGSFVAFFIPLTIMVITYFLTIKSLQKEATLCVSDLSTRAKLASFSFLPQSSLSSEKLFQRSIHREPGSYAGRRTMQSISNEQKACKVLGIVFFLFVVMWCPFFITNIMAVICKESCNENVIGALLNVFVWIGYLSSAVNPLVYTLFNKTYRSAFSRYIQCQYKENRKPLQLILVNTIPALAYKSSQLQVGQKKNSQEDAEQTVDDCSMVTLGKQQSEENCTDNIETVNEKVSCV
# Target: 5-hydroxytryptamine receptor 2A (Rattus norvegicus, UniProt P14842)
# Experiment: Binding affinity was measured against 5-hydroxytryptamine 2A receptor by displacement of [3H]- ketanserin by lysergic acid amides
# Procedure, shortened: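 Rat frontal cortex membranes from pooled male Sprague-Dawley rats, preincubated at 37 °C, in 50 mM Tris HCl (pH 7.4) with 0.5 mM Na2EDTA, 0.1% ascorbate, 10 μM pargyline and 5.7 mM CaCl2. Displacement of 0.75 nM [3H]ketanserin with 200–400 μg protein for 15 min at 37 °C, then GF/C filtration. Triplicates. Three to four experiments combined.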
smiles,measurement,value
CCN(CC)C(=O)[C@@H]1C=C2c3cccc4[nH]cc(c34)C[C@H]2N(C)C1 [LYSERGIDE],Ki,4.4 nM
